Literature values in patent US20210087191A1, “SUBSTITUTED 3-ISOBUTYL-9,10-DIMETHOXY-1,3,4,6,7,11B-HEXAHYDRO-2H-PYRIDO[2,1-a]ISOQUINOLIN-2-OL COMPOUNDS, THEIR SYNTHESIS, AND USE THEREOF” (DISPERSOL TECHNOLOGIES, LLC, priority 2020, published 2021).

The chains behind the UniProt entries cited, without tags or fusion partners.
UniProt Q05940, whole entry, species assumed: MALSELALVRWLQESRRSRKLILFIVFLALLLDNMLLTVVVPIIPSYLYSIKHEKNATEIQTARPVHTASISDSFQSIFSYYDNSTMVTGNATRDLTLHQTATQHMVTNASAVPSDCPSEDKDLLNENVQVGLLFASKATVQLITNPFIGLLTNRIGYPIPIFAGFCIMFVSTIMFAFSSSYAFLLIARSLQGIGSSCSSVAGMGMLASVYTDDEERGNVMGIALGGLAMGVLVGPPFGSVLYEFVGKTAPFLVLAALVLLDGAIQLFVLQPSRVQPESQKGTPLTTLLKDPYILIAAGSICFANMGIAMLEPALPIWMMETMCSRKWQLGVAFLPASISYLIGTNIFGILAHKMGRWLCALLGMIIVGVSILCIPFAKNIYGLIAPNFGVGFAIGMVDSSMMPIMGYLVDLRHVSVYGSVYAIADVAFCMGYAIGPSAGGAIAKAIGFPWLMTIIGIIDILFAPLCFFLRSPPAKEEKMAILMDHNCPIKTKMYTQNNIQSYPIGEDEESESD

Target: VMAT2 (Homo sapiens, UniProt Q05940)
Settings: compared to the other three isomers; cited from earlier work

COc1cc2c(cc1OC)[C@H]1C[C@@H](O)[C@H](CC(C)C)CN1CC2 [(+)-α-DHTBZ, 2R,3R,11bR-dihydrotetrabenazine]
inhibitory concentration for VMAT2: lowest inhibitory concentration
